From PMC7184563 (Journal of Medicinal Chemistry, 2020)

Molecular target: human BCL6 BTB domain (Homo sapiens, UniProt P41182)

Structure (SMILES) | fold drop in activity (TR-FRET) [fold] | fold better potency (TR-FRET) [fold]
Cn1c(=O)n(CCC(C)(C)O)c2cc(Nc3c(Cl)cncc3Cl)ccc21 [Compound 17f, 5-((3,5-Dichloropyridin-4-yl)amino)-3-(3-hydroxy-3-methylbutyl)-1-methyl-1,3-dihydro-2H-benzo[d]imidazol-2-one] | 37 | 
Cn1c(=O)n(CCC(C)(C)O)c2cc(Nc3nc(N4CCOCC4)ncc3Cl)ccc21 [Compound 20a, 5-((5-Chloro-2-morpholinopyrimidin-4-yl)amino)-3-(3-hydroxy-3-methylbutyl)-1-methyl-1,3-dihydro-2H-benzo[d]imidazol-2-one] |  | 4
